Assay results as given in US10550118B2, “JAK inhibitors containing a 4-membered heterocyclic amide” (THERAVANCE BIOPHARMA R&D IP, LLC, priority 2017, dated 2020).

Protein sequences, listed by entry. Tags and fused reporters are not part of them. Lines headed by an entry give the natural chain unless they say otherwise; changes in a name come on top.
UniProt P23458: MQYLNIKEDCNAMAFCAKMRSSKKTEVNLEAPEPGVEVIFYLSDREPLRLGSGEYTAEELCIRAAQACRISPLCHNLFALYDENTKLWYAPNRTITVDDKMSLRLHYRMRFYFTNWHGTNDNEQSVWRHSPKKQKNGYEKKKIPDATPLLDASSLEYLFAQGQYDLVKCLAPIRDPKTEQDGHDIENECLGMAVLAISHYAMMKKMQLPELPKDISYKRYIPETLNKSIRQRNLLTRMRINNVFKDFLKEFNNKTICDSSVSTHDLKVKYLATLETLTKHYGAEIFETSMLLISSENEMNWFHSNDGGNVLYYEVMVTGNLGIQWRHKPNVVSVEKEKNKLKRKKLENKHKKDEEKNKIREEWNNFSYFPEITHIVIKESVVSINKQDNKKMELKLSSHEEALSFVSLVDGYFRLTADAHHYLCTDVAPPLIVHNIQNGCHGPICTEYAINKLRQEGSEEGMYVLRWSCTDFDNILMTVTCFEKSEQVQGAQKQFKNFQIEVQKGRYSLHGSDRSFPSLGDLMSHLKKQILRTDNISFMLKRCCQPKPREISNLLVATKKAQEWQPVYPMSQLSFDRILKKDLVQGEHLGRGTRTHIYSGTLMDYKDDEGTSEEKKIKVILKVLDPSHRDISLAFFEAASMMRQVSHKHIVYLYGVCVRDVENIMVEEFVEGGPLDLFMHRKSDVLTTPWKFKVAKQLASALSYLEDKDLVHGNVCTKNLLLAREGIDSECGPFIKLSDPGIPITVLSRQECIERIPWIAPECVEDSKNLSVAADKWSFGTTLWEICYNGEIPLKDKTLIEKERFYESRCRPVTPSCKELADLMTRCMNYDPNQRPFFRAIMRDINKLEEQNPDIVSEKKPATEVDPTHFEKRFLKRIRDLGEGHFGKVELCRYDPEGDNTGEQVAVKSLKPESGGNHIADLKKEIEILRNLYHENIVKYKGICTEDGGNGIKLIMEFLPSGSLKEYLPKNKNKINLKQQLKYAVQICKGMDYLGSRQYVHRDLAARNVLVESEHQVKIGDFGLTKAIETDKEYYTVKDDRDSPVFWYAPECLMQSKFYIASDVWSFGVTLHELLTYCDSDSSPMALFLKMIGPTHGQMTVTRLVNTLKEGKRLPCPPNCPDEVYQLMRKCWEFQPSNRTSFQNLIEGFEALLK
UniProt P52333: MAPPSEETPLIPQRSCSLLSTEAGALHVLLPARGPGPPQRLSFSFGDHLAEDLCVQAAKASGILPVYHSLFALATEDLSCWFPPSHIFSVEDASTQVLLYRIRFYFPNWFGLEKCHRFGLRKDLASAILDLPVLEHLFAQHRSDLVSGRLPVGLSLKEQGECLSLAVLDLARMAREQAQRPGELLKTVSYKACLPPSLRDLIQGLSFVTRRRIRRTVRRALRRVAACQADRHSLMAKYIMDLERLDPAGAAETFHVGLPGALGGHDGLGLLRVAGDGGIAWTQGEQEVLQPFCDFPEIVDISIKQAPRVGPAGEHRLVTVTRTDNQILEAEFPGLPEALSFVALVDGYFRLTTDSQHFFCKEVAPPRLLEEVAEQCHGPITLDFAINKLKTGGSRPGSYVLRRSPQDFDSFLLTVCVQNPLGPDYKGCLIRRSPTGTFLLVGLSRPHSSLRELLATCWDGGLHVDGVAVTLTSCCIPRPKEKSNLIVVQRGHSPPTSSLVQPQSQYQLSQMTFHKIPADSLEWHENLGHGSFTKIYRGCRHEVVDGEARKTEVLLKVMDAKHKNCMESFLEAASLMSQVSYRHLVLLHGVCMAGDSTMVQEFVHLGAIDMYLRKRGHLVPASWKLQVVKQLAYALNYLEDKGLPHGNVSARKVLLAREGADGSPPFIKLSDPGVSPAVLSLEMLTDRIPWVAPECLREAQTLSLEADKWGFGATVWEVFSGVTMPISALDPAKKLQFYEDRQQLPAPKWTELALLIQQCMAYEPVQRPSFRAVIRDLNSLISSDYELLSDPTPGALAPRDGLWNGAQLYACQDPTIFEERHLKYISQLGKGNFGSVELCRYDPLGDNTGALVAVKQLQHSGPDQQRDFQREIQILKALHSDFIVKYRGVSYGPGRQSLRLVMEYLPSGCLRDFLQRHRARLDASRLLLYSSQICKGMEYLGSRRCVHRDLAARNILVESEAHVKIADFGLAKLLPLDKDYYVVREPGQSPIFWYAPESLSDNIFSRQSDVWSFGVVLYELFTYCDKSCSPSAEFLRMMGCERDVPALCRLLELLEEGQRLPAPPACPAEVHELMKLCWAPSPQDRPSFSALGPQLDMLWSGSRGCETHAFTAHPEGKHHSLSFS

Key:
JAK1 = JAK1 (Homo sapiens (Human), UniProt P23458); assay: Biochemical JAK kinase assay (LanthaScreen), JAK1; conditions: Km ATP 25 μM; from pIC50 by Cheng-Prusoff
Description: (§1) Assay 1: Biochemical JAK Kinase Assays
(§2) A panel of four LanthaScreen JAK biochemical assays (JAK1, 2, 3 and Tyk2) were carried in a common kinase reaction buffer (50 mM HEPES, pH 7.5, 0.01% Brij-35, 10 mM MgCl2, and 1 mM EGTA). Recombinant GST-tagged JAK enzymes and a GFP-tagged STAT1 peptide substrate were obtained from Life Technologies.
(§3) Serially diluted compounds were pre-incubated with each of the four JAK enzymes and the substrate in white 384-well microplates (Corning) at ambient temperature for 1 h. ATP was subsequently added to initiate the kinase reactions in 10 μL total volume, with 1% DMSO. […] The plates were allowed to incubate at ambient temperature for 1 h before being read on the EnVision reader (Perkin Elmer).
(§4) For dose-response analysis, percent inhibition data were plotted vs. compound concentrations, and IC50 values were determined from a 4-parameter robust fit model with the Prism software (GraphPad Software). Results were expressed as pIC50 (negative logarithm of IC50) and subsequently converted to pKi (negative logarithm of dissociation constant, Ki) using the Cheng-Prusoff equation.

JAK3 = JAK3 (Homo sapiens (Human), UniProt P52333); assay: Biochemical JAK kinase assay (LanthaScreen), JAK3
Description: as §1, §2, §3, §4

**Q.** With `CCc1cc(O)c(F)cc1-c1ccc2c(-c3nc4c([nH]3)CN(C(C)C)[C@H](C(=O)N3CC(C)(N(C)C)C3)C4)n[nH]c2c1` [Example 8-16] as the compound, how does the Ki (JAK1) read?
**A.** The Ki was 0.1 nM.

**Q.** And the Ki (JAK3)?
**A.** The Ki was 0.32 nM.
